Target: T1, hSIRT3 (Homo sapiens, UniProt Q9NTG7)
T1 construct: His-tag; purchased Enzo Life Sciences (Farmingdale, NY)
T1 sequence (Q9NTG7 102-399): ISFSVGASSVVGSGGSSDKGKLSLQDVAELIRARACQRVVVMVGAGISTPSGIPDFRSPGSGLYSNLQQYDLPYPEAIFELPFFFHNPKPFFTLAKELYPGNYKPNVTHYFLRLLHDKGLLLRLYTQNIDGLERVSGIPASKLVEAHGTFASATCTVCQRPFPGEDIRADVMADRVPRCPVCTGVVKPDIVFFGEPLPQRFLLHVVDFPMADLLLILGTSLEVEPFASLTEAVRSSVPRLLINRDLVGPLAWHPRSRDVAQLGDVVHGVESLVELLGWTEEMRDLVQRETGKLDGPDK
Assay: Fluorescence-based SIRT3 deacetylation assay using FdL2 peptide, steady state (Conditions I)
Assay type: biochemical
Conditions: [cpd]=50 μM; [NAD+]=1 mM, [FdL2 peptide]=50 μM, 30 min
Procedure: FIG. 4. Effect of top ranked hit compounds on Sirt3 deacetylation activity.
The 6 top ranked compounds from DEL screening were tested modulation effect of SIRT3 using fluorescence-based assay (FIG. 4).
The enzymatic reactions were carried out similar to as described above. The reaction was terminated by adding the 1× developer 2 mM NAM solution and measured the fluorescence on TECAN microplate reader. The raw data were fitted to the defined model equations using GraphPad Prism (GraphPad Software, Inc, CA).

SIRT3 deacetylation activity, % control, 50 μM or Maxi: 68.5%
Structure (SMILES): C=CCc1ccc(O)c(-c2ccc(O)c(CC=C)c2)c1 [HKL, Honokiol, reference compound]
